Measurements as given in US9296734B2 (AMGEN INC., priority 2013, dated 2016).
Read-outs that look alike come from different tables or passages of the source.

By UniProt entry, the sequences of proteins in these tests, tags left out. Residues count along the entry.
UniProt P56817, 46-501: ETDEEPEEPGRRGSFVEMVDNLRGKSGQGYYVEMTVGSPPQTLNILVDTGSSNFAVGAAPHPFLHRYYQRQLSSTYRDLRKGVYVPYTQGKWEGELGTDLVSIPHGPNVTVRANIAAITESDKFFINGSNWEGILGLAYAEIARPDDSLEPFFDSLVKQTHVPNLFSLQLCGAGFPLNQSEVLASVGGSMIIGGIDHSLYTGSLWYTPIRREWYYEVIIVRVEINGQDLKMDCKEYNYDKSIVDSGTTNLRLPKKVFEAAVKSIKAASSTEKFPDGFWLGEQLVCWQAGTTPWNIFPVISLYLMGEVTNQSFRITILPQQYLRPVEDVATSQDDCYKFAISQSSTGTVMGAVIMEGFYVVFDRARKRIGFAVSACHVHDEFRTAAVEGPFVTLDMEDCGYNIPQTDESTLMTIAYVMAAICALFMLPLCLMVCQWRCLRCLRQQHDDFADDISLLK

How the values were obtained:
[1] = biological target: Beta Secretase enzyme (BACE) (Homo sapiens (Human), UniProt P56817); assay: In vitro enzymatic BACE FRET assay; type: biochemical; conditions: read-out: BACE 1 FRET assay IC50
Procedure: In Vitro Enzymatic BACE FRET (Fluorescence Resonance Energy Transfer) Assay (Enzyme Assay Data in the Example Table I)
The assay buffer used in this screen is 0.05 M acetate, pH 4.2, 10% DMSO final, 100 uM genapol (which is a nonionic detergent, below its Critical Micelle Concentration). […] This assay is effectively started by the addition of FRET substrate (50 nM) and the combination is incubated for one hour. The FRET assay is terminated with by addition of Tris buffer, which raises the pH to neutrality, and the fluorescence is determined. The FRET substrate is a peptide with commercially available fluorophore and quencher, on opposite sides of the BACE cleavage site.

[2] = tested on: Aβ40 in conditioned medium of cells stably expressing Amyloid Precursor Protein (APP); assay: In vitro BACE cell-based assay (Aβ40 sandwich ELISA); conditions: Homo sapiens
Procedure: In Vitro BACE Cell-Based Assay
The cell-based assay measures inhibition or reduction of Aβ40 in conditioned medium of test compound treated cells expressing amyloid precursor protein.
Cells stably expressing Amyloid Precursor Protein (APP) were plated at a density of 40K cells/well in 96 well plates (Costar). The cells were cultivated for 24 hours at 37° C. and 5% CO2 in DMEM supplemented with 10% FBS. The test compounds were then added to cells in 10-point dose response concentrations with the starting concentration being either 100 μM or 10 μM. The compounds were diluted from stock solutions in DMSO and the final DMSO concentration of the test compounds on cells was 0.1%. After 24 h of incubation with the test compounds the supernatant conditioned media was collected and the Aβ 40 levels were determined using a sandwich ELISA. The IC50 of the compound was calculated from the percent of control or percent inhibition of Aβ 40 as a function of the concentration of the test compound.
The sandwich ELISA to detect Aβ 40 was performed in 96 well microtiter plates, which were pre-treated with goat anti-rabbit IgG (Pierce). The capture and detecting antibody pair that were used to detect Aβ 40 from cell supernatants were affinity purified pAb40 (Biosource) and biotinylated 6E10 (Signet Labs Inc.), respectively. The optimal concentration for the pAb40 antibody was 3 μg/ml in Superblock/TBS (Pierce) that was supplemented with 0.05% Tween 20 (Sigma).
Cellular supernatants were incubated with the capture antibody for 3 h at 4° C., followed by 3 wash steps in TBS-tween (0.05%). The detecting antibody incubation was for 2 h at 4° C., again followed by the wash steps as described previously. The final readout of the ELISA is Time-Resolved Fluorescence (counts per minute) using Delfia reagents Streptavidin-Europium and Enhancement solutions (Perkin Elmer) and the Victor 2 multilabel counter (Perkin Elmer).

[3] = HEK293, average IC50, HEK cells, read-out: HEK cell assay IC50
[4] = average IC50, BACE enzyme assay
[5] = HEK293, average IC50, HEK cell assay, read-out: HEK cell assay IC50
[6] = HEK293, HEK cells, average, read-out: HEK cell assay IC50

SMILES	IC50 ([1]; average IC50)	IC50 [1, 4]	IC50 [2, 5]	IC50 ([1]; average)	IC50 [2, 6]	other results
COc1ccc(C(=O)Nc2cccc([C@]3(CF)C[C@@H](C(F)(F)F)OC(N)=N3)c2)nc1 [Example 145, N-(3-((4S,6S)-2-amino-4-(fluoromethyl)-6-(trifluoromethyl)-5,6-dihydro-4H-1,3-oxazin-4-yl)phenyl)-5-methoxypicolinamide]	334 nM					IC50 [2, 3]: 55 nM
C[C@@]1(c2cc(NC(=O)N3CC=C(C#CC4CC4)CC3)ccc2F)C[C@@H](C(F)(F)F)OC(N)=N1 [Example 124, N-(3-((4S,6S)-2-amino-4-methyl-6-(trifluoromethyl)-5,6-dihydro-4H-1,3-oxazin-4-yl)-4-fluorophenyl)-4-(cyclopropylethynyl)-5,6-dihydropyridine-1(2H)-carboxamide]		1680 nM	525 nM			
COc1cnc(C(=O)Nc2ccc(F)c([C@]3(C)C[C@@H](C(F)(F)F)OC(N)=N3)n2)c(Cl)c1 [Example 80, N-(6-((4S,6S)-2-amino-4-methyl-6-(trifluoromethyl)-5,6-dihydro-4H-1,3-oxazin-4-yl)-5-fluoropyridin-2-yl)-3-chloro-5-methoxypicolinamide]		254 nM	51 nM			
COc1cnc(C(=O)Nc2cc(F)c(Cl)c([C@]3(C)C[C@@H](C(F)(F)F)OC(N)=N3)c2)cn1 [Example 237, N-(3-((4S,6S)-2-amino-4-methyl-6-(trifluoromethyl)-5,6-dihydro-4H-1,3-oxazin-4-yl)-4-chloro-5-fluorophenyl)-5-methoxypyrazine-2-carboxamide]				29 nM	13 nM	
NC1=N[C@](CF)(c2cc(NC(=O)c3ccc(Br)cn3)cc(F)c2F)C[C@@H](C(F)(F)F)O1 [Example 157, N-(3-((4S,6S)-2-amino-4-(fluoromethyl)-6-(trifluoromethyl)-5,6-dihydro-4H-1,3-oxazin-4-yl)-4,5-difluorophenyl)-5-bromopicolinamide]		19 nM	81 nM			
CC#Cc1cncc(-c2ccc(F)c([C@]3(CF)C[C@@H](C(F)(F)F)OC(N)=N3)c2)c1 [Example 104, (4S,6S)-4-(2-fluoro-5-(5-(prop-1-yn-1-yl)pyridin-3-yl)phenyl)-4-(fluoromethyl)-6-(trifluoromethyl)-5,6-dihydro-4H-1,3-oxazin-2-amine]		318 nM	1250 nM			
C#CCOc1cnc(C(=O)Nc2ccc(F)c([C@]3(C)C[C@@H](C(F)(F)F)OC(N)=N3)c2)cn1 [Example 45, N-(3-((4S,6S)-2-amino-4-methyl-6-(trifluoromethyl)-5,6-dihydro-4H-1,3-oxazin-4-yl)-4-fluorophenyl)-5-(prop-2-yn-1-yloxy)pyrazine-2-carboxamide]				2.3 nM	0.5 nM	
NC1=N[C@](CF)(c2cc(Nc3cc(Cl)ccn3)ccc2F)C[C@@H](C(F)(F)F)O1 [Example 16, (4S,6S)-4-(5-((4-chloropyridin-2-yl)amino)-2-fluorophenyl)-4-(fluoromethyl)-6-(trifluoromethyl)-5,6-dihydro-4H-1,3-oxazin-2-amine]		23700 nM	5820 nM			
COc1cnc(C(=O)Nc2cnc(F)c([C@]3(C)C[C@@H](C(F)(F)F)OC(N)=N3)c2)c(Cl)c1 [Example 69, N-(5-((4S,6S)-2-amino-4-methyl-6-(trifluoromethyl)-5,6-dihydro-4H-1,3-oxazin-4-yl)-6-fluoropyridin-3-yl)-3-chloro-5-methoxypicolinamide]	48.5 nM					IC50 [2, 3]: 25.3 nM
Cc1cc(C#N)cnc1C(=O)Nc1cc(Cl)c(F)c([C@]2(C)C[C@@H](C(F)(F)F)OC(N)=N2)c1 [Example 210, N-(3-((4S,6S)-2-amino-4-methyl-6-(trifluoromethyl)-5,6-dihydro-4H-1,3-oxazin-4-yl)-5-chloro-4-fluorophenyl)-5-cyano-3-methylpicolinamide]				11 nM	34 nM	
COc1cnc(C(=O)Nc2ccc(F)c([C@]3(CF)C[C@@H](C(F)(F)F)OC(N)=N3)c2)cn1 [Example 2, N-(3-((4S,6S)-2-amino-4-(fluoromethyl)-6-(trifluoromethyl)-5,6-dihydro-4H-1,3-oxazin-4-yl)-4-fluorophenyl)-5-methoxypyrazine-2-carboxamide]	21 nM					IC50 [2, 3]: 32 nM
C#CCOC1CCN(C(=O)Nc2ccc(F)c([C@]3(C)C[C@@H](C(F)(F)F)OC(N)=N3)c2)CC1 [Example 120, N-(3-((4S,6S)-2-amino-4-methyl-6-(trifluoromethyl)-5,6-dihydro-4H-1,3-oxazin-4-yl)-4-fluorophenyl)-4-(prop-2-yn-1-yloxy)piperidine-1-carboxamide]		13700 nM	1140 nM			
NC1=N[C@](CF)(c2cc(Nc3ncc(F)c4cc(Cl)cnc34)ccc2F)C[C@@H](C(F)(F)F)O1 [Example 19, (4S,6S)-4-(5-((3-chloro-5-fluoro-1,7-naphthyridin-8-yl)amino)-2-fluorophenyl)-4-(fluoromethyl)-6-(trifluoromethyl)-5,6-dihydro-4H-1,3-oxazin-2-amine]		29 nM	552 nM			
C[C@@]1(c2nc(NC(=O)c3ncc(C(F)(F)F)cc3Cl)ccc2F)C[C@@H](C(F)(F)F)OC(N)=N1 [Example 81, N-(6-((4S,6S)-2-amino-4-methyl-6-(trifluoromethyl)-5,6-dihydro-4H-1,3-oxazin-4-yl)-5-fluoropyridin-2-yl)-3-chloro-5-(trifluoromethyl)-picolinamide]	124 nM					IC50 [2, 3]: 18.6 nM
NC1=N[C@](CF)(c2cc(C#Cc3ccc(OC(F)F)cn3)ccc2F)C[C@@H](C(F)(F)F)O1 [Example 127, (4S,6S)-4-(5-((5-(difluoromethoxy)pyridin-2-yl)ethynyl)-2-fluorophenyl)-4-(fluoromethyl)-6-(trifluoromethyl)-5,6-dihydro-4H-1,3-oxazin-2-amine]				2960 nM	2460 nM	
C#CCOc1cnc(C(=O)Nc2cnc(F)c([C@]3(C)C[C@@H](C(F)(F)F)OC(N)=N3)c2)cn1 [Example 73, N-(5-((4S,6S)-2-amino-4-methyl-6-(trifluoromethyl)-5,6-dihydro-4H-1,3-oxazin-4-yl)-6-fluoropyridin-3-yl)-5-(prop-2-yn-1-yloxy)pyrazine-2-carboxamide]				4.7 nM	2.5 nM	
COc1cnc(C(=O)Nc2ccc(F)c([C@]3(CF)C[C@@H](C(F)(F)F)OC(N)=N3)c2)c(C)n1 [Example 33, N-(3-((4S,6S)-2-amino-4-(fluoromethyl)-6-(trifluoromethyl)-5,6-dihydro-4H-1,3-oxazin-4-yl)-4-fluorophenyl)-5-methoxy-3-methylpyrazine-2-carboxamide]	73.6 nM					IC50 [2, 3]: 100 nM
Cc1cc(OCC(F)(F)F)cnc1C(=O)Nc1cc(F)c(F)c([C@]2(C)C[C@@H](C(F)(F)F)OC(N)=N2)c1 [Example 194, N-(3-((4S,6S)-2-amino-4-methyl-6-(trifluoromethyl)-5,6-dihydro-4H-1,3-oxazin-4-yl)-4,5-difluorophenyl)-3-methyl-5-(2,2,2-trifluoroethoxy)picolinamide]				156 nM	213 nM	
NC1=N[C@](CF)(c2cc(Oc3ncccc3Cl)ccc2F)C[C@@H](C(F)(F)F)O1 [Example 97, (4S,6S)-4-(5-((3-chloropyridin-2-yl)oxy)-2-fluorophenyl)-4-(fluoromethyl)-6-(trifluoromethyl)-5,6-dihydro-4H-1,3-oxazin-2-amine]	993 nM					IC50 [2, 3]: 1500 nM
COc1ccc(C(=O)Nc2cc(F)c(F)c([C@]3(C)C[C@@H](C(F)(F)F)OC(N)=N3)c2)nc1 [Example 201, N-(3-((4S,6S)-2-amino-4-methyl-6-(trifluoromethyl)-5,6-dihydro-4H-1,3-oxazin-4-yl)-4,5-difluorophenyl)-5-methoxypicolinamide]				45 nM	15 nM	
Cc1cc(Cl)cnc1C(=O)Nc1ccc(F)c([C@]2(C)C[C@@H](C(F)(F)F)OC(N)=N2)c1 (racemic) [Example 31, N-(3-((4SR,6SR)-2-amino-4-methyl-6-(trifluoromethyl)-5,6-dihydro-4H-1,3-oxazin-4-yl)-4-fluorophenyl)-5-chloro-3-methyl-2-pyridinecarboxamide]	16.5 nM					IC50 ([2]; HEK293, read-out: HEK cell assay IC50): 14.4 nM
